Consider two compounds from patent publication US11249070B2, “Anti-cancer drug assessment method” (TOPPAN PRINTING CO., LTD., priority 2016, dated 2022).

One assay relates to HCT116. In words: CNT with 5-FU with or without bevacizumab, 2D, spheroid, 3D (Example 5). Type of assay: cell-based, human. The conditions noted are these: 5-FU 1 mM, bevacizumab 2 μg per well in the combination, 72 hours.
The test system of assay [1] is patient-derived breast cancer cells CLTH/BC. The conditions noted are these: 3D; Oxaliplatin 10 μg; bevacizumab 2 μg per well in the combination; 72 hours.

Structures are written as SMILES.

Consider `O=c1[nH]cc(F)c(=O)[nH]1` [5-FU], for which the “CNT (%) Average value” in the assay with HCT116 is recorded as 61.2%. Regarding `O=C1[O][Pt]2([NH][C@@H]3CCCC[C@H]3[NH]2)[O]C1=O` [Oxaliplatin, oxaliplatin], the “CNT (%) Average value” in assay [1] worked out at 69.4%.
